PubChem BioAssay (EPA / NIEHS)
Only a part is listed here, and it is no random draw. Results filed as inconclusive are left out. The source made the active and inactive calls. How the source made its calls, unless noted: active means hit-call score of the fitted dose curve at least 0.9, where 1 is the maximum; inactive means score below 0.9.

Chains of the proteins cited; added tags and fusions are not shown.
UniProt Q16665, whole entry: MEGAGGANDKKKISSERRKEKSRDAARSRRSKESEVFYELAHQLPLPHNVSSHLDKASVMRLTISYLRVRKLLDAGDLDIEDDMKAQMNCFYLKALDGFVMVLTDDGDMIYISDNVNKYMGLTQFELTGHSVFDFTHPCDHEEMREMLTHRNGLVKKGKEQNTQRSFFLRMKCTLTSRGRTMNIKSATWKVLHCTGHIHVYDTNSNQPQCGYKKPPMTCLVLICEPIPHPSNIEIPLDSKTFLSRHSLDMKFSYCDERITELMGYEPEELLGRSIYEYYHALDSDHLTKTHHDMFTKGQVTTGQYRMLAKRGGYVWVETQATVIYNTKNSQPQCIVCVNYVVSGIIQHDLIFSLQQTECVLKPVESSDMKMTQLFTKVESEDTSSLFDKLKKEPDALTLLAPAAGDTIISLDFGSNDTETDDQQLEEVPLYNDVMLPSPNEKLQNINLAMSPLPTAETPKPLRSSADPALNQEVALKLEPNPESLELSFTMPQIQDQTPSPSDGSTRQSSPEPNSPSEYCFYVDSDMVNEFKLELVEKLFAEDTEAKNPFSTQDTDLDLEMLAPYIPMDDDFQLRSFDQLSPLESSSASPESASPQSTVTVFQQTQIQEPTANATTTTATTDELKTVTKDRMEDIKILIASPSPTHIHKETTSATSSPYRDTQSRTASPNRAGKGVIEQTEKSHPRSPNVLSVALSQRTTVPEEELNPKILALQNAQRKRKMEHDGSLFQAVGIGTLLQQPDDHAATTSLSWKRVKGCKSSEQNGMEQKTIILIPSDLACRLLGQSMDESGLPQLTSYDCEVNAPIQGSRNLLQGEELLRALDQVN
UniProt P37231, whole entry: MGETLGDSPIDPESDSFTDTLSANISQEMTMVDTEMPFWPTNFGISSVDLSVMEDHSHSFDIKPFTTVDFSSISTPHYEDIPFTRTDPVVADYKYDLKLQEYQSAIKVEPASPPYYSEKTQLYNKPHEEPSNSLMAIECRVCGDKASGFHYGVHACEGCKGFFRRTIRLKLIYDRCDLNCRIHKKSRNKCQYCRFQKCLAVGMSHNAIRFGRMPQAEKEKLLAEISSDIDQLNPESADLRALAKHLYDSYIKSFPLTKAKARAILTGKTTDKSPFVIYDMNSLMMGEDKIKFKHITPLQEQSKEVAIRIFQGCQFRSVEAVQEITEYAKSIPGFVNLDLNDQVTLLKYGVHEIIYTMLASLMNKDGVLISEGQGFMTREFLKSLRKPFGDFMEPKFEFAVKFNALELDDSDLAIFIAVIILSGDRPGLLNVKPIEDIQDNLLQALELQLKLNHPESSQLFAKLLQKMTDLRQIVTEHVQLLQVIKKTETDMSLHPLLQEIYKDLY

Columns and labels:
[1] = APR_HepG2_CellCycleArrest_24hr: Apredica 24-hour HepG2 Assay for Cell Cycle Arrest (AID 2282905); settings: imaging, actives raise or lower the signal;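 further: cell cycle arrest scored as ratio of 2N to 4N nuclear DNA content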
Outline: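 HepG2 cells were exposed to compounds at 0.39–200 uM (ten concentrations, duplicate) in 0.5% v/v DMSO for 24 hr. After formaldehyde fixation and Triton permeabilization, Hoechst 33342-stained nuclei were imaged at 20x; DNA content was quantified, with bidirectional fitting against DMSO.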

[2] = APR_HepG2_CellCycleArrest_72hr: Apredica 72-hour HepG2 Assay for Cell Cycle Arrest (AID 2282914); settings: high-content imaging, actives raise or lower the signal
Outline: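 Read-out is Hoechst-stained nuclear DNA content measured by automated fluorescence imaging (20x, six images per well), fitted in both directions relative to DMSO. Human HepG2 liver cells received 0.39–200 uM compound for 72 hr at 0.5% v/v DMSO.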

[3] = biological target: Hypoxia-inducible factor 1-alpha (Homo sapiens) (UniProt Q16665); experiment: ATG_HIF1a_CIS: Attagene CIS-FACTORIAL HepG2 Assay for human Hypoxia Inducible Factor 1 (HIF1A) (AID 2282951); settings: HepG2 Attagene cis-factorial HIF1a reporter transcription; actives raise or lower the signal
Outline: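 Activity is fitted in both directions relative to DMSO. Reporter transcripts are read by RT-PCR, fluorescent primer extension and capillary electrophoresis after 24 h chemical treatment. The cells are HepG2 carrying transiently transfected cis-element-driven reporter units responding to endogenous factors.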

[4] = ATG_PPRE_CIS: Attagene CIS-FACTORIAL HepG2 Assay for human Peroxisome Proliferator-activated Response Element (PPRE) (AID 2282958); settings: HepG2 PPRE cis-element reporter, Attagene transcription factor profiling; actives raise or lower the signal
Outline: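 Endogenous PPRE-driven transcription is measured in HepG2 cells carrying transfected multi-reporter constructs. Reporter transcripts are quantified by RT-PCR, HpaI digestion and capillary electrophoresis 24 h after dosing. DMSO baseline, bidirectional fit.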

[5] = ATG_NRF2_ARE_CIS: Attagene CIS-FACTORIAL HepG2 Assay for human Nuclear Factor Erythroid 2 Related Factor 2 (NFR2) response to Antioxidant Response Elements (ARE) (AID 2282992); settings: HepG2 Attagene ARE/NRF2 reporter, transcription factor activity; actives raise or lower the signal;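 further: reporter mRNA level measured by RT-PCR and capillary electrophoresis fluorescence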
Outline: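 Cis-factorial assay: transfected HepG2 reporter library, 24 h dosing, mRNA readout via RT-PCR/CE; DMSO-referenced bidirectional analysis.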

[6] = BSK_4H_Eotaxin3: BioMAP Diversity Plus: 4H Assay for Eotaxin 3 Biomarker Activity (AID 2283000); settings: actives raise or lower the signal; primary human endothelial cells (HUVEC)
Outline: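 Chemicals were added to human umbilical vein endothelium cultures, and Eotaxin-3 was quantified by ELISA at 24 h. Values were derived by bidirectional fitting with DMSO serving as negative control and activity baseline.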

[7] = biological target: Peroxisome proliferator-activated receptor gamma (Homo sapiens) (UniProt P37231); experiment: ATG_PPARg_TRANS: Attagene TRANS-FACTORIAL HepG2 Assay for human Peroxisome Proliferator-activated Receptor-gamma (PPARg) (AID 2283007; active means hit-call score of the fitted dose curve at least 0.9, where 1 is the maximum)
Outline: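 After 24 h of chemical exposure, transfected HepG2 cells carrying PPARγ-Gal4 chimera reporter constructs are lysed for RNA. Reporter transcripts are measured by RT-PCR and capillary electrophoresis with fluorescent labelling, and gain of signal is fitted versus DMSO.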

[8] = read-out: Interferon-gamma inducible Protein 10 (IP10), CXCL10 (gene 3627); experiment: BSK_BE3C_IP10: BioMAP Diversity Plus: BE3C Assay for Interferon-gamma inducible Protein 10 (IP10) Biomarker Activity (AID 2283034); settings: actives raise or lower the signal; primary human bronchial epithelial cells
Outline: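 Human primary bronchial epithelial cells were exposed to chemicals for 24 hours, after which IP-10 levels were measured by ELISA. Data were fitted bidirectionally against DMSO, which served as the negative control and activity baseline.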

[9] = read-out: CD38, CD38 (gene 952); experiment: BSK_SAg_CD38: BioMAP Diversity Plus: SAg Assay for CD38 Biomarker Activity (AID 2283087); settings: actives raise or lower the signal; primary human HUVEC with PBMC
Outline: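 Fluorescence ELISA of cell-surface CD38 served as the read-out, with either increase or decrease fitted against DMSO controls. Cells were a human umbilical vein endothelium plus PBMC co-culture under SEB/TSST-1 stimulation, measured 24 h after dosing.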

[10] = BSK_SAg_Proliferation: Cell Proliferation Assessment in the BioMAP Diversity Plus: SAg Assay (AID 2283095); settings: primary human HUVEC with PBMC;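 further: relative cell number as total protein by SRB absorbance in sub-confluent culture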
Outline: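 Human umbilical vein endothelial cells co-cultured with peripheral blood mononuclear cells; total protein measured by sulforhodamine B staining (0.1% SRB after 10% TCA fixation), absorbance at 560 nm, at 96 h. Bidirectional fit against DMSO baseline.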

[11] = read-out: Forkhead box O1 (FOXO1), FOXO1 (gene 2308); experiment: LTEA_HepaRG_FOXO1: Life Technologies and Expression Analysis (LTEA) Assay for Forkhead box O1 (FOXO1) using HepaRG (AID 2283456); settings: actives raise or lower the signal; mRNA level, 48 h
Outline: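 Differentiated human HepaRG cells in serum-free induction medium were exposed in duplicate for 48 h to eight half-log concentrations (top 100 uM, 0.5% DMSO). FOXO1 mRNA was measured by TaqMan qRT-PCR, normalised to ACTB, GAPDH and POLR2A, and fitted bidirectionally against DMSO.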

[12] = read-out: growth arrest and DNA damage 45 (GADD45B), GADD45B (gene 4616); experiment: LTEA_HepaRG_GADD45B: Life Technologies and Expression Analysis (LTEA) Assay for growth arrest and DNA damage 45 (GADD45B) using HepaRG (AID 2283461); settings: actives raise or lower the signal; mRNA level, 48 h
Outline: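 HepaRG, ~100,000 cells/well, 48 h plating; serum-free induction medium; cpd 100 uM top, half-log x8, 0.5% DMSO, duplicate, 48 h; lysis in RLT, RNA isolation, qRT-PCR; norm ACTB/GAPDH/POLR2A; bidirectional fit vs DMSO.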

[13] = read-out: ABC Transporter (ABCB11), ABCB11 (gene 8647); experiment: LTEA_HepaRG_ABCB11: Life Technologies and Expression Analysis (LTEA) Assay for ABC Transporter (ABCB11) using HepaRG (AID 2283463); settings: actives raise or lower the signal; mRNA level, 48 h
Outline: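 Differentiated human HepaRG cells were exposed for 48 h in serum-free induction medium to eight half-log concentrations up to 100 uM in 0.5% DMSO. ABCB11 mRNA was quantified by qRT-PCR, normalized to ACTB, GAPDH and POLR2A, and fitted bidirectionally versus DMSO.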

[14] = read-out: adenosine kinase (ADK) gene, ADK (gene 132); experiment: LTEA_HepaRG_ADK: Life Technologies and Expression Analysis (LTEA) Assay for adenosine kinase (ADK) gene using HepaRG (AID 2283471); settings: actives raise or lower the signal; mRNA level, 48 h
Outline: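 Read-out is ADK transcript level measured by qRT-PCR and normalised to three housekeeping genes. Cells are human HepaRG, dosed for 48 h at up to 100 uM in 0.5% DMSO. Gain or loss of signal is fitted against DMSO controls.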

[15] = read-out: BCL2L11 (gene 10018); experiment: LTEA_HepaRG_BCL2L11: Life Technologies and Expression Analysis (LTEA) Assay for Bcl-2 (BCL2L11) gene using HepaRG (AID 2283473); settings: actives raise or lower the signal; mRNA level, 48 h
Outline: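 Read-out is BCL2L11 transcript level by qRT-PCR, normalized to three housekeeping genes and fitted bidirectionally against 0.5% DMSO vehicle. HepaRG cells received chemicals for 48 h in serum-free induction medium, 100 uM down in half-log dilutions.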

Measured: AC50

Cc1cc([N+](=O)[O-])cc([N+](=O)[O-])c1O
active: [1] 73.7 µM | [2] 52.5 µM | [3] 26.1 µM | [4] 105 µM | [5] 62.3 µM | [6] 31.2 µM | [7] 23.7 µM | [8] 10.7 µM | [9] 14.7 µM | [10] 29.5 µM | [11] 32.2 µM | [12] 12.2 µM | [13] 4.43 µM | [14] 12.4 µM | [15] 12.2 µM
